The series can be described thus: Test-tube determination of anionic character: dye mixed with organoclay, clean clay or quat in water, centrifuged, judged visually. In kind it is physicochemical. To be noted: Test Tube 3, in water. The text has this:
At the outset of the method of the present invention, it must first be determined if a particular chemical ion or molecule will be able to undergo the method of enhancing its dispersibility and thereby its anionic properties as disclosed herein. Thus, a determination must be made (for example, if the ionic character of a certain compound is unknown) whether or not the ion or molecule comprises a useful anionic portion that will react with a cationic compound (such as a quat) which (1) is already reacted onto the surface of a substrate such as a clay or (2) is to be reacted onto the surface of such a substrate after reacting with the anion of interest. Thus, the molecule or ion can be tested in order to determine whether it has an anionic character (and thus can undergo the present method) or a cationic character or a neutral character. In testing certain molecules or ions, the procedure described below was employed.
Using Jarocol Straw Yellow dye as a representative example, four 1 mg samples of the dye were weighed and placed in 4 test tubes. […]
The analysis herein was performed visually, since the six samples tested were dyes. […] For example, for a non-dye sample, the clay may be separated from the water, both parts may be taken to dryness, and the IR spectrum of each may be recorded.

With `Cc1ccc(N=Nc2c([O-])c(C(=O)O)cc3ccccc23)c(S(=O)(=O)[O-])c1.[Na+].[Na+]` [Lithol Rubine B], the “Solubility of reaction product with quat” value is recorded as “highly insoluble reaction product”.

These data come from patent US20040058168A1, “Method for incorporating anionic molecules into a substrate for increasing dispersibility of anionic molecules” (priority 2002, published 2004).
